Measured values published in ChEMBL document CHEMBL1143029, “Heme oxygenase inhibition by 2-oxy-substituted 1-(1H-imidazol-1-yl)-4-phenylbutanes: effect of halogen substitution in the phenyl ring” (Bioorg Med Chem, 2007).
Blank lines part the entries; values can stand above or below the compound they belong to.

Experiments:
[1] = species: Rattus norvegicus; assay: Selectivity index, ratio of IC50 for Sprague-Dawley rat brain HO2 to IC50 for Sprague-Dawley rat spleen HO1; assay type: tissue-based
Method in brief: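 Ratio of IC50(HO-2) to IC50(HO-1). HO-2 comes from Sprague-Dawley rat brain microsomes and HO-1 from spleen microsomes. Both were assayed identically: methemalbumin substrate, 10 min inhibitor pre-incubation at 37 °C, 15 min reaction with 1 mM NADPH, and CO measured by GC. Each IC50 was derived from sigmoidal dose–response fits of percent-control activity.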

[2] = biological target: T1, Heme oxygenase 2 (Rattus norvegicus) (UniProt P23711); assay: Inhibition of Sprague-Dawley rat brain microsome HO2 at 100 uM relative to control
T1 sequence (whole entry): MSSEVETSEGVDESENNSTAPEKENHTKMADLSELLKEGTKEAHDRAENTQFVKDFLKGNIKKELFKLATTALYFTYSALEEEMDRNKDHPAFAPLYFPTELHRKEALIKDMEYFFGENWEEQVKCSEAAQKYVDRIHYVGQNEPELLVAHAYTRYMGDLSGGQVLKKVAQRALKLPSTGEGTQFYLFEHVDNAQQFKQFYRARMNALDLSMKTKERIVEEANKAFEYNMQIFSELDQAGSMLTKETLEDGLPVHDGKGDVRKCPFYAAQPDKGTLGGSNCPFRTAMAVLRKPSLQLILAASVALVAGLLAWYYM
Method in brief: (§1)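 Spleen (HO-1) or brain (HO-2) microsomes from Sprague-Dawley rats, at 1 mg/mL protein in 100 mM phosphate buffer pH 7.4 with methemalbumin (heme–albumin) as substrate. Inhibitor hydrochloride pre-incubated 10 min at 37 °C, then 1 mM NADPH added for 15 min at 37 °C. Stopped by freezing on dry ice. CO formed measured by gas chromatography; activity given as percent of no-inhibitor control.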

[3] = biological target: T2, Heme oxygenase 1 (Rattus norvegicus, UniProt P06762); assay: Inhibition of Sprague-Dawley rat spleen microsome HO1; assay type: microsomes
T2 sequence (P06762 whole entry): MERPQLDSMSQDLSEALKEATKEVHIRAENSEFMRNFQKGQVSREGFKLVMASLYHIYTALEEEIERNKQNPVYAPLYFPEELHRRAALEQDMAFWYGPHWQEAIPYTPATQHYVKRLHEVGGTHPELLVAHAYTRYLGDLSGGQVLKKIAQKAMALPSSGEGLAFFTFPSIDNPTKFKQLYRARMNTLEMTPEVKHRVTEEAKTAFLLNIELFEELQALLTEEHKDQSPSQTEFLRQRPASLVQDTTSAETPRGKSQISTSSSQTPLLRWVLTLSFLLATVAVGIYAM

[4] = biological target: T3, Heme oxygenase 1 (Rattus norvegicus) (UniProt P06762); assay: Inhibition of Sprague-Dawley rat spleen microsome HO1 at 0.1 uM relative to control; assay type: microsomes; method in brief: as §1
T3 sequence (whole entry): T2 sequence (P06762 whole entry)

[5] = biological target: T1, Heme oxygenase 2 (Rattus norvegicus); assay: Inhibition of Sprague-Dawley rat brain microsome HO2 at 0.1 uM relative to control; method in brief: as §1
[6] = biological target: T3, Heme oxygenase 1 (Rattus norvegicus); conditions: Sprague-Dawley, Spleen, Microsome, 100 uM

SMILES: OC(CCc1ccc(Br)cc1)Cn1ccnc1 (stereo unspecified)
- Ratio IC50 [1]: 18.6
- inhibition [2]: 55%

SMILES: c1ccc(CCC2(Cn3ccnc3)OCCO2)cc1
- Ratio IC50 [1]: > 143

SMILES: OC(CCc1ccc(I)cc1)Cn1ccnc1 (stereo unspecified)
- IC50 [3]: 60 nM

Now from value to compound, other results behind:

- inhibition [4]: 27%
- inhibition [5]: 10%
- inhibition [2]: 60%
- inhibition [6]: 80%
SMILES: O=C(CCc1ccc(Cl)cc1)Cn1ccnc1
- Ratio IC50 [1]: 16.4

- inhibition [6]: 80%
SMILES: O=C(CCc1ccc(Br)cc1)Cn1ccnc1
- Ratio IC50 [1]: 9.2
